# What was measured:
# [1] = Ratio of unbound intrinsic glucuronidation clearance in human intestinal microsomes in presence of 1% bovine serum albumin to unbound intrinsic glucuronidation clearance in human intestinal microsomes in absence of bovine serum albumin; format: ADME, Intestine, Microsome
# Method in brief: (§1)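 Unbound intrinsic glucuronidation clearance measured by parent-drug depletion in intestinal or kidney microsomes, once with 1% BSA and once without, under otherwise matched conditions (1 μM drug, pH 7.1 phosphate, 5 mM cofactor, 37°C). Each value was corrected for fu,inc. The ratio is the mean clearance with BSA over the mean without.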
# Liver microsome = test: Ratio of unbound intrinsic glucuronidation clearance in human liver microsomes in presence of 1% bovine serum albumin to unbound intrinsic glucuronidation clearance in human liver microsomes in absence of bovine serum albumin; format: ADME
# Method in brief: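 Ratio of mean unbound CLint,UGT in pooled human liver microsomes with 1% BSA to that without BSA. Both come from 1 μM depletion assays at 37°C in pH 7.1 phosphate buffer, with parent drug measured by LC-MS/MS. BSA runs were quenched in double-volume ice-cold acetonitrile. Each condition was corrected by its own equilibrium-dialysis fu,inc. n = 3, duplicates.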
# [2] = molecular target: T1, UDP-glucuronosyltransferase 2B7 (Homo sapiens, UniProt P16662); test: Ratio of UGT2B7-mediated unbound intrinsic glucuronidation clearance in human intestinal microsomes to UGT2B7-mediated unbound intrinsic glucuronidation clearance in human liver microsomes at 1 uM; format: ADME; details: recombinant enzyme
# T1 sequence (P16662 whole entry): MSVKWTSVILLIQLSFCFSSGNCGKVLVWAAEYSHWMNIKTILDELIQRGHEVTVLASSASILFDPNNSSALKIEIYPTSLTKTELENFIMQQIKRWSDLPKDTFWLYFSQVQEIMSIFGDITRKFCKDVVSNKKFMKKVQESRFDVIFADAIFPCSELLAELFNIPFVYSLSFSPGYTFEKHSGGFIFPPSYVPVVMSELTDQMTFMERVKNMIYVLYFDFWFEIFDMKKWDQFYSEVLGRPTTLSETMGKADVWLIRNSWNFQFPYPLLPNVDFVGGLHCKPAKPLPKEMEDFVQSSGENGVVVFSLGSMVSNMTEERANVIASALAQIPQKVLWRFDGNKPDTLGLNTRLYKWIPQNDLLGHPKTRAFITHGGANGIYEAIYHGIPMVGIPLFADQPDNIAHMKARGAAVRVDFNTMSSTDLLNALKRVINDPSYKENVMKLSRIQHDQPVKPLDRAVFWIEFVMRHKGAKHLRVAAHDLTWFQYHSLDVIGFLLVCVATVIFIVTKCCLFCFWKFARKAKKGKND
# [3] = molecular target: T1, UDP-glucuronosyltransferase 2B7; test: Ratio of UGT2B7-mediated unbound intrinsic glucuronidation clearance in human kidney microsomes to UGT2B7-mediated unbound intrinsic glucuronidation clearance in human liver microsomes at 1 uM; format: ADME; details: recombinant enzyme
# [4] = molecular target: T1, UDP-glucuronosyltransferase 2B7; test: Ratio of UGT2B7-mediated unbound intrinsic glucuronidation clearance in human kidney microsomes to UGT2B7-mediated unbound intrinsic glucuronidation clearance in human intestinal microsomes at 1 uM in presence of 1% bovine serum albumin; format: ADME
# [5] = molecular target: UDP-glucuronosyltransferase 2B7 (Homo sapiens) (UniProt P16662); test: Drug metabolism in human intestinal microsomes assessed as UGT2B7-mediated unbound intrinsic glucuronidation clearance at 1 uM after 30 to 60 mins by LC-MS/MS analysis in presence of 1% bovine serum albumin
# [6] = molecular target: T1, UDP-glucuronosyltransferase 2B7; test: Ratio of UGT2B7-mediated unbound intrinsic glucuronidation clearance in human kidney microsomes to UGT2B7-mediated unbound intrinsic glucuronidation clearance in human intestinal microsomes at 1 uM; format: ADME
# [7] = molecular target: T1, UDP-glucuronosyltransferase 2B7; test: Ratio of UGT2B7-mediated unbound intrinsic glucuronidation clearance in human kidney microsomes to UGT2B7-mediated unbound intrinsic glucuronidation clearance in human liver microsomes at 1 uM in presence of 1% bovine serum albumin; format: ADME; details: recombinant enzyme
# [8] = Ratio of unbound intrinsic glucuronidation clearance in human kidney microsomes in presence of 1% bovine serum albumin to unbound intrinsic glucuronidation clearance in human kidney microsomes in absence of bovine serum albumin; format: ADME, microsome; method in brief: as §1
# [9] = molecular target: T1, UDP-glucuronosyltransferase 2B7; test: Ratio of UGT2B7-mediated unbound intrinsic glucuronidation clearance in human intestinal microsomes to UGT2B7-mediated unbound intrinsic glucuronidation clearance in human liver microsomes at 1 uM in presence of 1% bovine serum albumin; format: ADME; details: recombinant enzyme
smiles,measurement,setting,value
Cc1ccc(C)c(OCCCC(C)(C)C(=O)O)c1 [GEMFIBROZIL],Ratio,[1],1.6
same,Ratio,Liver microsome,1.6
same,Ratio,[2],0.048
same,Ratio,[3],0.328
same,Ratio,[4],29.7
same,CL free,[5],0.824 mL/min/g
same,Ratio,[6],6.89
same,Ratio,[7],0.332
same,Ratio,[8],1.6
same,Ratio,[9],0.011

# — ChEMBL document CHEMBL3526056, “Characterization of in vitro glucuronidation clearance of a range of drugs in human kidney microsomes: comparison with liver and intestinal glucuronidation and impact of albumin” (Drug Metab Dispos, 2012)
